Test [1] concerns Mus musculus. Put plainly: Compound was evaluated for analgesic activity against chemically induced pain in the mouse phenylquinone writhing (PQW) test following peroral administration.
Test [2] relates to Mus musculus. Put plainly: Compound was evaluated for analgesic activity against chemically induced pain in the mouse phenylquinone writhing (PQW) test following subcutaneous administration.
Test [3] is filed under the species Rattus norvegicus. Put plainly: Compound was evaluated for analgesic activity against heat induced pain in rat (uninflamed paw).
The species named for test [4] is Rattus norvegicus. Put plainly: Compound was evaluated for analgesic activity against Pressure induced pain in rats (inflamed paw).
The next test is filed under the species Canis familiaris. The experiment in a line: Compound was evaluated for analgesic activity against electrically stimulated tooth pulp pain in dogs.
For test [5], the species on record is Rattus norvegicus. Put plainly: Compound was evaluated for analgesic activity against electrically stimulated tooth pulp pain in rats.

Each structure is given as a SMILES string.

This passage reports ED50 results from ChEMBL document CHEMBL1126435, “DuP 747: a new, potent, kappa opioid analgesic. Synthesis and pharmacology1” (Bioorg Med Chem Lett, 1992).

For the compound `CN(C(=O)Cc1ccc(Cl)c(Cl)c1)[C@H]1c2ccccc2CC[C@@H]1N1CCCC1.Cl`, the ED50 turned out to be 13 mg/kg in the test with Mus musculus [1] and 2.7 mg/kg with Mus musculus [2].

As to `COc1cccc2c1CC[C@H](N1CCCC1)[C@H]2N(C)C(=O)Cc1ccc(Cl)c(Cl)c1.CS(=O)(=O)O`, the ED50 in the test filed under Rattus norvegicus [3] was 31 mg/kg; in the test listed under Rattus norvegicus [4], 26 mg/kg; in the test listed under Canis familiaris, 1.3 mg/kg; in the test filed under Rattus norvegicus [5] it was 3.2 mg/kg; with Mus musculus [1] it was 6.2 mg/kg; in the test on Mus musculus [2], 0.46 mg/kg.

For the compound `CN(C(=O)Cc1ccc(Cl)c(Cl)c1)C1CCCCC1N1CCCC1` (stereo not given), the ED50 in the test with Mus musculus [1] came to 13 mg/kg; in the test on Mus musculus [2], 1.2 mg/kg.
